Biological target: T1, NR2B-subtype NMDA receptors (Rattus norvegicus, UniProt P35439+Q00960)
T1 construct: For membrane preparation, rat forebrains were thawed on ice; from tissue; host or cells: rat forebrain membrane homogenate (Sprague Dawley, Harlan)
Experiment: Radioligand binding assay (3H Ro 25-6981 competition, rat forebrain membranes)
Conditions: 3H Ro 25-6981 4 nM
Protocol: Binding experiments to determine binding to NR2B-subtype NMDA receptors were performed on forebrains of 8-10 weeks old male Sprague Dawley rats (Harlan, Netherlands) using ^3H Ro 25-6981 (Mutel V; Buchy D; Klingelschmidt A; Messer J; Bleuel Z; Kemp J A; Richards J G. Journal of Neurochemistry, 1998, 70(5):2147-2155. Rats were decapitated without anesthesia using a Guillotine (approved by animal ethics committee) and the harvested brains were snap-frozen and stored at −80° C. for 3-6 months for membrane preparation.
For membrane preparation, rat forebrains were thawed on ice for 20 minutes in homogenization buffer composed of 50 mM KH2PO4 (pH adjusted to 7.4 with KOH), 1 mM EDTA, 0.005% Triton X 100 and protease inhibitor cocktail (Sigma Aldrich). Thawed brains were homogenized using a Dounce homogenizer and centrifuged at 48000×g for 20 min. The pellet was resuspended in cold buffer and homogenized again using a Dounce homogenizer. Subsequently, the homogenate was aliquoted, snap-frozen and stored at −80° C. for not more than 3-4 months.
To perform the competition binding assay, thawed membrane homogenate was added to each well of a 96-well plate (20 μg/well). […] The filter plates were dried at 50° C. for 20 mins, incubated with microscint 20 for 10 minutes and finally, the counts were read on TopCount (Perkin Elmer).

Protein sequences, listed by entry. Tags and fused reporters are not part of them. Residues count along the entry.
UniProt Q00960, 27-1482: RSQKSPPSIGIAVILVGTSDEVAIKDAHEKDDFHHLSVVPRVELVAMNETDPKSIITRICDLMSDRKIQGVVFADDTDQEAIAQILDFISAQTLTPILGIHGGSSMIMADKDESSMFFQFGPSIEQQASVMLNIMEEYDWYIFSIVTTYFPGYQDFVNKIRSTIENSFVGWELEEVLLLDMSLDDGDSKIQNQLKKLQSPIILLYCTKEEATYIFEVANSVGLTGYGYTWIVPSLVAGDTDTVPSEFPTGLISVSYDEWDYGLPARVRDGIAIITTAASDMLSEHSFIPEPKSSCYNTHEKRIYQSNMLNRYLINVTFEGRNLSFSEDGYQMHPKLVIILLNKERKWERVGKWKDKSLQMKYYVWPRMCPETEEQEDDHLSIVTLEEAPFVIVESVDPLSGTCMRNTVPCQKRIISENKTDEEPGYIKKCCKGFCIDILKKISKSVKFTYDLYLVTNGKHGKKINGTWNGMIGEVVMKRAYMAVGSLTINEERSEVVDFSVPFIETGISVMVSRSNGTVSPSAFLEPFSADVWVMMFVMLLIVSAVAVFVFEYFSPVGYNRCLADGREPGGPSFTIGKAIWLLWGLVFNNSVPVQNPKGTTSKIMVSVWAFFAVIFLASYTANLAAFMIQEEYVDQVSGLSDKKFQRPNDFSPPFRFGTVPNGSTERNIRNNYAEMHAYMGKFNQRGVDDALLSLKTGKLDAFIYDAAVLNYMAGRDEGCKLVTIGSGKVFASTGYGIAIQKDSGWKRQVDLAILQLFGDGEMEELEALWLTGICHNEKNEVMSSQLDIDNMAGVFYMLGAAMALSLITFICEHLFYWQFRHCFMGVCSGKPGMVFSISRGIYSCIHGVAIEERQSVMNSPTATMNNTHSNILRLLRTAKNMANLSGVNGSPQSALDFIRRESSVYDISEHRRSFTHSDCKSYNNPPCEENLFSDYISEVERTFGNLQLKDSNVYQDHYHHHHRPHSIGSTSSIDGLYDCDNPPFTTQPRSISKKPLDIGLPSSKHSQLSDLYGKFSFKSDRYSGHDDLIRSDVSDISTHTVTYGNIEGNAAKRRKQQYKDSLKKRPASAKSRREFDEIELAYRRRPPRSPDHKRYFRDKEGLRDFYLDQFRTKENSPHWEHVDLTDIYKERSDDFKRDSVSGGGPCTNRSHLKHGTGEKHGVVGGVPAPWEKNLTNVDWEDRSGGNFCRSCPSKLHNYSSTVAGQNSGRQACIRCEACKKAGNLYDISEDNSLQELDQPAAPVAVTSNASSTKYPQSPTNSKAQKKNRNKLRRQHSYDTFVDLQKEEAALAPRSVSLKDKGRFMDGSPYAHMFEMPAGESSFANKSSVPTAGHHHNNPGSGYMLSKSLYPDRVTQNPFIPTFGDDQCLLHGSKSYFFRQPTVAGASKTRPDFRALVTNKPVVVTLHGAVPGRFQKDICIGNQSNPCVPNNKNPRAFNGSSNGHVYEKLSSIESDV

Ki: 4 nM
Compound: Cc1ccc(CN2CC[C@@H](N3CC[C@@H](c4ccc(O)cc4)[C@H](F)C3)C2=O)cc1 [example 1, (R)-3-((3S,4S)-3-fluoro-4-(4-hydroxyphenyl)piperidin-1-yl)-1-(4-methylbenzyl)pyrrolidin-2-one]

— patent US9187506B2, “(R)-3-((3S,4S)-3-fluoro-4-(4-hydroxyphenyl)piperidin-1-yl)-1-(4-methylbenzyl)pyrrolidin-2-one and its prodrugs for the treatment of psychiatric disorders” (Bristol-Meyers Squibb Company, priority 2014, dated 2015)
